The values below are quoted from earlier work in paper PMC9222203, “A Robust Assay to Monitor Ataxin-3 Amyloid Fibril Assembly” (Cells, 2022).

By UniProt entry, the sequences of proteins in these tests, tags left out. Where a name states a change or a piece, a line headed by the entry shows the natural chain unless it says otherwise.
UniProt P54252: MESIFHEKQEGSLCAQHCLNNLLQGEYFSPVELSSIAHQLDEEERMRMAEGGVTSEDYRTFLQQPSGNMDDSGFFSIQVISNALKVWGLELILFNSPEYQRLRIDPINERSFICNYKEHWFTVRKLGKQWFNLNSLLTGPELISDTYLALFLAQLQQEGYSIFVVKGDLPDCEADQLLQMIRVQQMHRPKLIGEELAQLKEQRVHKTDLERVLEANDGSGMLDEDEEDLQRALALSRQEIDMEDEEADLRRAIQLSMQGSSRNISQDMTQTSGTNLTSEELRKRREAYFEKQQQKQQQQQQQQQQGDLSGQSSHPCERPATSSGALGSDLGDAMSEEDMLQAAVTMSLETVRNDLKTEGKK

In this series the target is Ataxin-3 13Q (Homo sapiens) (UniProt P54252). Briefly: biophysical aggregation model. As to conditions: cited from earlier work.

On to Ataxin-3 13Q (from UniProt P54252), for which the Kd (as a rule, the free concentration of one partner at which half of the binding sites on the other are occupied at equilibrium, for simple one-to-one binding) was 4.6 µM.
